Sequences of proteins named here, by UniProt entry; tags and fusion partners are left off. Residues count along the entry.
UniProt Q14416, 19-872 limits assumed: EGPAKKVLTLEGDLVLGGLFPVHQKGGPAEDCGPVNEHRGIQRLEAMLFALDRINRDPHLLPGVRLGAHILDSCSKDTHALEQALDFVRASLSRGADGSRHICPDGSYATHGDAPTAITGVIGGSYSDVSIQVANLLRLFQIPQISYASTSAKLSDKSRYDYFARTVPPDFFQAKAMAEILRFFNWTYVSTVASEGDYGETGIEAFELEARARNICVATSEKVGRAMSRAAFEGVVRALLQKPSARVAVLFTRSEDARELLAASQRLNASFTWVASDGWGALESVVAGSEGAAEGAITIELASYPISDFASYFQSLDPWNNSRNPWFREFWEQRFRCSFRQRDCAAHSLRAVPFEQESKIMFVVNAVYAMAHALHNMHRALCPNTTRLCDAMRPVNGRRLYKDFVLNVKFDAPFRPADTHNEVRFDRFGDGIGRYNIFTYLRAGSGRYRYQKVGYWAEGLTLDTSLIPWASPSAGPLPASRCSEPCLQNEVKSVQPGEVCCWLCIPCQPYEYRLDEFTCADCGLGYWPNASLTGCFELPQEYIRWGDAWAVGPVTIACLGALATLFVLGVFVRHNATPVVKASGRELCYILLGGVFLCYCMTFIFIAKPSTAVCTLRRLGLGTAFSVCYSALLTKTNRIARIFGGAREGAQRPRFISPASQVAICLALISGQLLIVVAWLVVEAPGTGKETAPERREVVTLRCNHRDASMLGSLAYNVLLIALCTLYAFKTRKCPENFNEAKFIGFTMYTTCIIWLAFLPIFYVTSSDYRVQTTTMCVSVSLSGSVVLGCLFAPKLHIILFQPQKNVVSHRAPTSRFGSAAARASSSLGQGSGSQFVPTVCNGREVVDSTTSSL

In patent US9266834B2, “1, 4-disubstituted 3-cyano-pyridone derivatives and their use as positive allosteric modulators of MGLUR2-receptors” (JANSSEN PHARMACEUTICALS, INC., priority 2006, dated 2016):

The compounds below were run against human mGluR2 receptor (Homo sapiens, UniProt Q14416) (assay: [35S]GTPγS binding assay (GTPγS-PAM): positive allosteric modulation in presence of glutamate at EC25, membranes from transfected CHO cells). Conditions: in presence of mGluR2 agonist glutamate at predetermined EC25 concentration, averages of duplicate values of 11-concentration response curves.
Source text: The compounds provided in the present invention are positive allosteric modulators of mGluR2. These compounds appear to potentiate glutamate responses by binding to an allosteric site other than the glutamate binding site. The response of mGluR2 to a concentration of glutamate is increased when compounds of Formula (I) are present. Compounds of Formula (I) are expected to have their effect substantially at mGluR2 by virtue of their ability to enhance the function of the receptor. The behaviour of positive allosteric modulators tested at mGluR2 using the [^35S]GTPγS binding assay method described below and which is suitable for the identification of such compounds, and more particularly the compounds according to Formula (I), are shown in Table 4.
[^35S]GTPγS Binding Assay
The [^35S]GTPγS binding is a functional membrane-based assay used to study G-protein coupled receptor (GPCR) function whereby incorporation of a non-hydrolysable form of GTP, [^35S]GTPγS (guanosine 5′-triphosphate, labelled with […] ^35S), is measured. The G-protein o subunit catalyzes the exchange of guanosine 5′-diphosphate (GDP) by guanosine triphosphate (GTP) and on activation of the GPCR by an agonist, [^35S]GTPγS, becomes incorporated and cannot be cleaved to continue the exchange cycle (Harper (1998) Current Protocols in Pharmacology 2.6.1-10, John Wiley & Sons, Inc.). […] Here we describe the use of the [^35S]GTPγS binding assay using membranes from cells transfected with the human mGluR2 receptor and adapted from Schaffhauser et al ((2003) Molecular Pharmacology 4:798-810) for the detection of the positive allosteric modulation (PAM) properties of the compounds of this invention.
CHO-cells were cultured to pre-confluence and stimulated with 5 mM butyrate for 24 hours, prior to washing in PBS, and then collection by scraping in homogenisation buffer (50 mM Tris-HCl buffer, pH 7.4, 4° C.). Cell lysates were homogenized briefly (15 s) using an ultra-turrax homogenizer. The homogenate was centrifuged at 23 500×g for 10 minutes and the supernatant discarded. The pellet was resuspended in 5 mM Tris-HCl, pH 7.4 and centrifuged again (30 000×g, 20 min, 4° C.). The final pellet was resuspended in 50 mM HEPES, pH 7.4 and stored at −80° C. in appropriate aliquots before use. Protein concentration was determined by the Bradford method (Bio-Rad, USA) with bovine serum albumin as standard.
Measurement of mGluR2 positive allosteric modulators in membranes containing human mGluR2 was performed using frozen membranes that were thawed and briefly homogenised prior to pre-incubation in 96-well microplates (15 μg/assay well, 30 minutes, 30° C.) in assay buffer (50 mM HEPES pH 7.4, 100 mM NaCl, 3 mM MgCl2, 50 μM GDP, 10 μg/ml saponin,) with increasing concentrations of positive allosteric modulator (from 0.3 nM to 50 μM) and either a minimal pre-determined concentration of glutamate (PAM assay), or no added glutamate. For the PAM assay, membranes were pre-incubated with glutamate at EC25 concentration, i.e. a concentration that gives 25% of the maximal response glutamate, and is in accordance to published data (Pin et al. (1999) Eur. J. Pharmacol. 375:277-294). After addition of [^35S]GTPγS (0.1 nM, f.c.) to achieve a total reaction volume of 200 μl, microplates were shaken briefly and further incubated to allow [^35S]GTPγS incorporation on activation (30 minutes, 30° C.). The reaction was stopped by rapid vacuum filtration over glass-fibre filter plates (Unifilter 96-well GF/B filter plates, Perkin-Elmer, Downers Grove, USA) microplate using a 96-well plate cell harvester (Filtermate, Perkin-Elmer, USA), and then by washing three times with 300 μl of ice-cold wash buffer (Na2PO4.2H2O 10 mM, NaH2PO4.H2O 10 mM, pH=7.4). Filters were then air-dried, and 40 μl of liquid scintillation cocktail (Microscint-O) was added to each well, and membrane-bound [^35S]GTPγS was measured in a 96-well scintillation plate reader (Top-Count, Perkin-Elmer, USA). […]

GTPgS - hR2 PAM pEC50 | Structure (SMILES)
5.9 | CC(C)CCn1ccc(-c2ccc(N3CCOCC3)c(O)c2)c(C#N)c1=O
6.7 | CC(C)CCn1ccc(N2CCC3=C(Cc4ccc(F)cc43)C2)c(C#N)c1=O
5.7 | CC(C)CCn1ccc(N2CCC(N(C)Cc3cccc(C(F)(F)F)c3)C2)c(C#N)c1=O (centres unmarked)
6.9 | CC(C)CCn1ccc(OCc2ccc(OC(F)(F)F)cc2)c(C#N)c1=O
6.7 | CC(C)CCn1ccc(-c2ccc3c(c2)OCCN3C)c(C#N)c1=O
5.7 | CC(C)CCn1ccc(N2CCC3(CC2)CN(Cc2cccc(C(F)(F)F)c2)C3)c(C#N)c1=O
6.9 | CC(C)CCn1ccc(-c2ccc3c(ccn3C)c2)c(C#N)c1=O

Second part, the compound before the results:

Structure (SMILES) | GTPgS - hR2 PAM pEC50
CC(C)CCn1ccc(N(C)C2CN(C(c3ccccc3)c3ccccc3)C2)c(C#N)c1=O | 6.7
CC(C)CCn1ccc(-c2ccc(CCCO)nc2)c(C#N)c1=O | 5.2
CCCCn1ccc(-c2ccc3c(cnn3Cc3cccnc3)c2)c(C#N)c1=O | 6.0
COc1ccc(-c2ccn(CCC(C)C)c(=O)c2C#N)cn1 | 5.1
CC(C)CCn1ccc(-c2ccc3nn(Cc4ccncc4)cc3c2)c(C#N)c1=O | 5.6
CC(C)CCn1ccc(-c2cnn(Cc3ccccc3)c2)c(C#N)c1=O | 6.3
CC(C)CCn1ccc(Nc2cc(-c3ccccc3)no2)c(C#N)c1=O | 6.3
